# Experimental melting point values from OPERA 2.9

Values as listed in the OPERA 2.9 repository of K. Mansouri.

The melting point is given in degrees Celsius. Cells with "n/a" have no entry in this list. "via" names the databases from which the curators took the value.

compound	name	melting point (°C)	via
CC(=O)N[C@@H](Cc1cc([N+](=O)[O-])c(O)c([N+](=O)[O-])c1)C(=O)O	n/a	170	eChemPortal
Clc1ccccc1-c1c(Cl)cc(Cl)c(Cl)c1Cl	2,2',3,4,6-Pentachlorobiphenyl	100	QSARDB
Cn1cc(C(=O)Nc2ccccc2C2CC2C2CC2)c(C(F)F)n1 (stereo not drawn)	Sedaxane	121	OCHEM
C=CCCCCCCCCC(=O)NCC(=O)O	Undecylenoyl glycine	103	eChemPortal
CCOC(=O)Nc1ccc(C(=O)O)cc1	4-((Ethoxycarbonyl)amino)benzoic acid	171	OCHEM
O=c1[nH]c2ccc(S(=O)(=O)Cl)cc2[nH]1	2-Oxo-2,3-dihydro-1H-benzimidazole-5-sulfonyl chloride	211	OCHEM
NC(=O)Cc1csc(N)n1	2-(2-amino-1,3-thiazol-4-yl)acetamide	162	OCHEM
Cn1c(CC#N)nc2ccccc21	1-Methyl-2-benzimidazoleacetonitrile	130	OCHEM
CC(C)(C)c1ccc(OCCCC(=O)O)cc1	4-(4-tert-butylphenoxy)butanoic acid	54	OCHEM
CCOC(=O)C(Cc1cc(I)c(Oc2ccc(OC)cc2)c(I)c1)NC(C)=O (stereo not drawn)	Ethyl N-acetyl-3,5-diiodo-O-(4-methoxyphenyl)tyrosinate	130	eChemPortal
Cc1sc2[nH]c(=S)n(C)c(=O)c2c1C	2-mercapto-3,5,6-trimethylthieno[2,3-d]pyrimidin-4(3H)-one	289	OCHEM
C/C=C/C(=O)C1=C(C)CCCC1(C)C	(E)-beta-Damascone	9	eChemPortal
CC1(C)COP(=O)(NCCNP2(=O)OCC(C)(C)CO2)OC1	n/a	258.5	eChemPortal
COc1ccc2c(c1)C(CC#N)=CCC2	(7-Methoxy-3,4-dihydronaphthalen-1-yl)acetonitrile	44.9	eChemPortal
S=c1[nH]nc(Nc2ccccc2Cl)s1	5-(2-Chloroanilino)-1,3,4-thiadiazole-2(3H)-thione	175	OCHEM
CC(=O)CS	1-Mercapto-2-propanone	113	PubChem
CCc1ccccc1C(=O)N(NC(=O)c1ccccc1)C(C)(C)C	N'-Benzoyl-N-tert-butyl-2-ethylbenzohydrazide	178	OCHEM
O=[N+]([O-])c1ccccc1S(=O)(=O)N1CCNCC1	1-(2-Nitrobenzene-1-sulfonyl)piperazine	148	OCHEM
Cc1cc(N2CCOCC2)ccc1N	2-Methyl-4-(morpholin-4-yl)aniline	90	OCHEM
CCOc1ccc(Nc2nc3ccccc3s2)cc1	Benzothiazol-2-yl-(4-ethoxy-phenyl)-amine	170	OCHEM
O=C(CCl)N[C@@H](Cc1c[nH]c2ccccc12)C(=O)O	N-(2-Chloroacetyl)-L-tryptophan	154	OCHEM
CC1=Nc2ccc(C(=O)O)cc2C1(C)C	2,3,3-Trimethyl-3H-indole-5-carboxylic acid	207	eChemPortal
Cc1ccc(S(=O)(=O)NC(O)=Nc2ccccc2)cc1	4-Methyl-N-(phenylcarbamoyl)benzenesulfonamide	154.5	eChemPortal
O=C(O)c1ccc(CSc2ccc(Cl)cc2)cc1	4-{[(4-Chlorophenyl)sulfanyl]methyl}benzoic acid	183	OCHEM
CCC[C@@H]1CC[C@@H](c2ccc(-c3cc(F)c(C(F)(F)Oc4cc(F)c(F)c(F)c4)c(F)c3)cc2)OC1 (relative stereo)	n/a	74.6	eChemPortal
O=C(O)CNC(=O)c1ccc2ccccc2c1	2-Naphthoylglycine	173	OCHEM
CC(C)[C@@H](C(=O)O)N1CCCNC1=O	n/a	176.5	eChemPortal
O=C(O)C1=C(Nc2ccccc2)OCC1=O	2-Anilino-4-oxo-4,5-dihydrofuran-3-carboxylic acid	145	OCHEM
Cc1ccc2nc(-c3ccc(/N=N/c4ccc(-c5nc6ccc(C)c(S(=O)(=O)[O-])c6s5)cc4)cc3)sc2c1S(=O)(=O)[O-].[Na+].[Na+]	n/a	367	eChemPortal
N#CCC(=O)NC1CCCC1	2-cyano-N-cyclopentylacetamide	93	OCHEM
CCN(c1ccccc1)c1nc(Cl)nc(Nc2cc(S(=O)(=O)[O-])cc3cc(S(=O)(=O)[O-])c(/N=N/c4ccc5ccccc5c4S(=O)(=O)[O-])c(O)c23)n1.[Na+].[Na+].[Na+]	n/a	153	eChemPortal
Cc1c(Cl)cc(S(=O)(=O)Cl)cc1[N+](=O)[O-]	3-Chloro-4-methyl-5-nitrobenzene-1-sulfonyl chloride	61	OCHEM
CC(C)(C)N(NC(=O)c1ccccc1)C(=O)c1cccc(F)c1	N'-Benzoyl-3-fluoro-N-(2-methyl-2-propanyl)benzohydrazide	176	OCHEM
CCCCCCCCCCCCCC(=O)N(C)CC(=O)[O-].[Na+]	Glycine, N-methyl-N-(1-oxotetradecyl)-, sodium salt	150.6	eChemPortal
CC(C)Oc1ccc(C#N)cc1	4-isopropoxybenzonitrile	51	OCHEM

The last 2 entries again:

compound	name	melting point (°C)	via
CCCCCCCCCCCCCC(=O)N(C)CC(=O)[O-].[Na+]	Glycine, N-methyl-N-(1-oxotetradecyl)-, sodium salt	150.6	eChemPortal
CC(C)Oc1ccc(C#N)cc1	4-isopropoxybenzonitrile	51	OCHEM

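The numbers are reported measurements, compiled and curated for the OPERA QSAR suite. A listed value is a point estimate from one report or more. Method and conditions are not stated for these values. A value may pool stereoisomers or salt forms, and the file does not say which form was measured. Some entries may be limits or estimates that an upstream database listed as plain numbers.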